# The entries are a selection whose mix differs from that of the whole data set. Results filed as inconclusive are left out. Activity calls are given as the source filed them. Calls come from the whole dose curve.
# Test: qHTS assay to identify small molecule agonists of the endoplasmic reticulum stress response signaling pathway - cell viability counter screen (AID 1159517); note: nearly all actives have a fitted effect of over 50% in size
# Conditions: ESRE-bla HeLa viability, CellTiter-Glo luminescence, 5 h; series mostly up to 61 µM; activity change, negative = cytotoxicity: at the top concentration
# Excerpt: U.S. Tox21 Program National Center for Advancing Translational Sciences [NCATS] NIH Chemical Genomics Center [NCGC] U.S. Environmental Protection Agency [EPA] National Institutes of Environmental Health Sciences [NIEHS] National Toxicology Program [NTP] U.S. Food and Drug Administration [FDA] Tox21 Assay Overview: Endoplasmic Reticulum (ER) plays an important role in cellular signaling, protein folding/maturation, stress response, lipid biosynthesis, calcium storage and release etc. Under stress conditions, proteins in ER misfold or unfold, and leading to the expression of ER stress responsive genes. ER stress has been associated with a variety of pathophysiological conditions such as cancer, inflammation, neurodegenerative diseases, diabetes, ischemic heart disease etc. To identify the compounds that induce ER stress response, an ER stress reporter cell line, CellSensor ESRE-bla HeLa (Life Technologies, Carlsbad, CA) containing a beta-lactamase reporter gene under control of the Endoplasmic reticulum Stress Response Element (ESRE) was used to screen Tox21 10K compound library. The cytotoxicity of the Tox21 compound library against the ESRE-bla HeLa cell line was tested in parallel by measuring cell viability using the CellTiter-Glo assay in the same wells.
# Tox21 Assay Protocol Summary: ESRE-bla HeLa cells were dispensed at 1,500 cells/6 uL of assay medium per well into black wall/clear-bottom 1536-well plates using a Multidrop Combi (ThermoFisher Scientific, Waltham, MA) dispenser. After the assay plates were incubated at 37 C and 5% CO2 for an overnight, 23 nL of compounds dissolved in DMSO, positive controls or DMSO only was transferred to the assay plate by a Pintool station (Kalypsys, San Diego, CA). The assay plates were incubated at 37 C and 5% CO2 for 5 hr. One uL of LiveBLAzer B/G FRET substrate (Life Technologies) was added using a FRD (Flying Reagent Dispenser, Aurora Discovery, San Diego, CA) and the plates were incubated at room temperature for 2 hr. Fluorescence intensity (405 nm excitation, 460 nm and 530 nm emissions) was measured using an Envision plate reader (PerkinElmer, Shelton, CT). For cytotoxicity, 4 ul/well of CellTiter-Glo reagent was added into the assay plates using an FRD. After 30 min incubation at room temperature, the luminescence intensity was measured using a ViewLux plate reader (PerkinElmer).
# % is set by controls: 0 for no effect and ±100 for the full control effect; potency is the fitted concentration of half-maximal effect.
Structure (SMILES),Potency,"activity change, negative = cytotoxicity"
NC(=O)Nc1ccc([As](=O)(O)O)cc1,inactive,–
COC(=O)Cl,–,inactive: 3.75%
ClP(Cl)c1ccccc1,–,inactive: -4.51%
CCOP(=S)(CC)Sc1ccccc1 (stereo unspecified),–,inactive: 5.48%
O=[P+](Oc1ccccc1)Oc1ccccc1,–,inactive: 3.27%
CC(C)OP(=S)(OC(C)C)SCCNS(=O)(=O)c1ccccc1,–,inactive: -4.38%
CCCCO[P+](=O)OCCCC,inactive,–
CN(C(=O)Cc1cccc2occc12)[C@H]1CC[C@@]2(CCCO2)C[C@@H]1N1CCCC1,–,inactive: -0.442%
CCCCC(CC)CO[P+](=O)OCC(CC)CCCC (stereo unspecified),–,inactive: 0.422%
CN(C(=O)Cc1ccccc1)[C@H]1CC[C@@]2(CCCO2)C[C@@H]1N1CCCC1,–,inactive: -8.25%
CCNC(C)Cc1ccc2c(c1)OCO2 (stereo unspecified),–,inactive: -16% [at 78.8 µM]
O=P(Cl)(Cl)c1ccccc1,–,inactive: 1.78%
Cc1cc([N+](=O)[O-])c(O)c([N+](=O)[O-])c1,–,inactive: 2.61% [at 78.8 µM]
O=[p+]1oc2ccccc2c2ccccc21 (stereo unspecified),–,inactive: -0.997%
O=[As]c1ccccc1 (stereo unspecified),active: 549 nM,–
COP(=S)(Cl)OC,–,inactive: 3.57% [at 78.8 µM]
CCOC(=O)Cl,–,inactive: 5.74%
CC(C)CCCCCCCOP(OCCCCCCCC(C)C)Oc1ccccc1,–,inactive: -5.96%
Cc1cc([N+](=O)[O-])cc([N+](=O)[O-])c1O,–,inactive: -4.74%
O=[N+]([O-])c1ccc(S(=O)(=O)O)c([N+](=O)[O-])c1,–,inactive: 8.32% [at 78.8 µM]
O=P(Cl)(Oc1ccccc1)Oc1ccccc1,–,inactive: 2.1%
